The target of assay [1] is T1, GC-A (Rattus norvegicus, UniProt P18910).
T1 construct: Evidence of homologous desensitization of endogenous GC-A- and GC-B-mediated signaling in GH3 cells; endogenous in cells; host or cells: GH3 rat somatolactotrope cells
T1 sequence (P18910 29-1057): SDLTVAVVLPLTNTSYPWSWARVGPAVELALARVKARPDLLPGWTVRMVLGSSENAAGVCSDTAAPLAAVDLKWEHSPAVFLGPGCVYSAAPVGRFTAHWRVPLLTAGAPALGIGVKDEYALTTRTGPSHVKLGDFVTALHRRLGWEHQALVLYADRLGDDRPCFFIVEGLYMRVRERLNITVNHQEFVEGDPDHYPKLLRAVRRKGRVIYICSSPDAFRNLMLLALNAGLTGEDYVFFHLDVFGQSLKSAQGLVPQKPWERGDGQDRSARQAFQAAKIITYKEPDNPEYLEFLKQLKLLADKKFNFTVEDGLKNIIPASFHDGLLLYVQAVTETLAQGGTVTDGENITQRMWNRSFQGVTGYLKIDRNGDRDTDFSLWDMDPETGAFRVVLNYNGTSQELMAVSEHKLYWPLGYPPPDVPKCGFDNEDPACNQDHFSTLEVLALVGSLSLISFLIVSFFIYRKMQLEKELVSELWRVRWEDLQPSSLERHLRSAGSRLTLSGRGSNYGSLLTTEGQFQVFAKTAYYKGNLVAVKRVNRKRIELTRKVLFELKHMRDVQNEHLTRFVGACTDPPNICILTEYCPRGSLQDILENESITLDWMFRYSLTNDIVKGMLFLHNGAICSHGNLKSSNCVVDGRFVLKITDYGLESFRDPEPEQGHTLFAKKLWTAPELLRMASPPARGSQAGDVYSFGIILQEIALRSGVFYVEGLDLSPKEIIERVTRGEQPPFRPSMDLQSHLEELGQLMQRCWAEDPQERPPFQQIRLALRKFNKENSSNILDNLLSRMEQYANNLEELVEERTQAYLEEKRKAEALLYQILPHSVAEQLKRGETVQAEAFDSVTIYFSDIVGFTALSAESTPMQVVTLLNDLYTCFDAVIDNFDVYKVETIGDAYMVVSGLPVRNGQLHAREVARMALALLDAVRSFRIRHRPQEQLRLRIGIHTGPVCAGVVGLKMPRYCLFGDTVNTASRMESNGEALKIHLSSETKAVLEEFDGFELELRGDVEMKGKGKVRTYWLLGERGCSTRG
The assay is described as follows: ANP-stimulated total cGMP accumulation in GH3 cells, concentration-response. It counts as cell-based. The note with it: 15 min, 1 mM IBMX.

The subject of a further assay is anterior pituitary. The conditions noted are these: later attributed to contamination with gonadotrophin-releasing hormone (Abou-Samra et al. [1987]); ref Horvath et al. [1986]; cited from earlier work. From the text: Nevertheless, several pharmacological studies support a functional role of ANP, acting via GC-A receptors, in the anterior pituitary (McArdle et a ...

The target in assay [2] is T1, GC-A. The assay can be described thus: Agonist-induced GC-A internalization by confocal immunofluorescence in GH3 cells. It is filed as cell-based. The conditions noted are these: 100 nM ANP, 0-4 h; n = 3; Fig. 5d-f. As to the method: GH3 cells were mounted on poly-L-lysine-coated coverslips and treated with either 0 or 100nM ANP or CNP in PSS during the indicated time points. Following treatment, cells were fixed with 4 % (w/v) formaldehyde for 10 min at room temperature and permeabilized with buffer (1 % [v/v] Tween-20 in 50 ml phosphate-buffered saline [PBS]) before incubation for 10 min at room temperature. Cells were then blocked with […] sodium azide dissolved in 92 % PBS, 3 % FCS and 5 % Tween-20 (v/v) for 20 min at room temperature, washed, then exposed to 1:200 diluted primary antibody solution (GC-A or GC-B, plus 0.1 % FCS and 0.1 % Tween-20) for 16 h at 4 °C. […] Following three PBS washes and a final 5-min PBS immersion at room temperature, the slides were mounted in Vectorshield (Vector Laboratories, Peterborough, UK) on standard VWR (VWR International, Leicestershire, UK) slides ready for analysis. A Leica SPS confocal scanning laser microscope was used to capture the staining, which was analyzed with Leica SPS software (Leica Microsystems, Milton Keynes, UK). […]
Fig. 5 Lack of ligand-dependent internalization of GC-B or GC-A in GH3 somatolactotrope cells. […] GC-A and GC-B immunoreactivity was detected by using Alexa488-conjugated secondary antibodies (green), whereas Alexa635-conjugated phalloidin was used to detect the actin cytoskeleton (red). […]

As for `CC[C@H](C)[C@@H]1NC(=O)[C@H](CCCNC(=N)N)NC(=O)[C@H](CC(=O)O)NC(=O)[C@H]([C@@H](C)CC)NC(=O)[C@H](CCCNC(=N)N)NC(=O)CNC(=O)CNC(=O)[C@H](Cc2ccccc2)NC(=O)[C@@H](NC(=O)[C@H](CO)NC(=O)[C@H](CO)NC(=O)[C@H](CCCNC(=N)N)NC(=O)[C@H](CCCNC(=N)N)NC(=O)[C@H](CC(C)C)NC(=O)[C@@H](N)CO)CSSC[C@@H](C(=O)N[C@@H](CC(N)=O)C(=O)N[C@@H](CO)C(=O)N[C@@H](Cc2ccccc2)C(=O)N[C@@H](CCCNC(=N)N)C(=O)N[C@@H](Cc2ccc(O)cc2)C(=O)O)NC(=O)CNC(=O)[C@H](CC(C)C)NC(=O)CNC(=O)[C@H](CO)NC(=O)[C@H](CCC(N)=O)NC(=O)[C@H](C)NC(=O)CNC1=O` [ANP, atrial natriuretic peptide], the “maximal cGMP response relative to CNP” value on GC-A [1] was “almost twice that of CNP”. Also, the gonadotropin secretion entry in the assay with anterior pituitary is listed as “reported to act as a gonadotropin secretagog”. Besides, the GC-A internalization result on GC-A [2] is “did not demonstrate any observable GC-B or GC-A internalization”.

These data come from paper PMC3921447, “Homologous and heterologous desensitization of guanylyl cyclase-B signaling in GH3 somatolactotropes” (Cell and Tissue Research, 2013).
